Publication PMC3408453, “A Foldamer-Dendrimer Conjugate Neutralizes Synaptotoxic β-Amyloid Oligomers” (PLoS ONE, 2012)
Like-named read-outs stand apart in the source and are kept apart here.

What was measured:
[1] = biological target: T1, oligomeric Aβ (Homo sapiens, UniProt P05067); assay: Capture ELISA, biotinyl ligands on streptavidin plate, oligomeric Aβ detected by BAM10; assay type: binding
T1 construct: a depsipeptide derivative of Aβ(1–42) was utilized; made in house; host or cells: chemical peptide synthesis (no expression host)
Method: Biotin-labeled 1 was prepared by elongating the foldamer segment with a biotinyl-aminohexanoyl-Gly-Gly moiety and these derivatives were coupled to G0-PAMAM which furnished biotin-labeled 7. Biotinyl-8 was also prepared. All the labeled ligands were attached to the streptavidin functionalized microplates with a coverage of 5 pmoles per well. […] Because of the potential sterical shielding of the recognition segments over the surface, the ITC affinities cannot be directly compared to the ELISA results.
(§1) Figure 6 ELISA results. (A) Effects of multivalency on the affinities. Normalized absorbances recorded in capture ELISA experiments, where the biotinyl-7 (circles), -8 (triangles) or -1 (squares) are attached to the streptavidin functionalized plate and the increasing surface concentration of Aβ is observed through the BAM10 antibody.
An indirect ELISA experiment was conducted on 96-well streptavidin-coated clear plates (Pierce, Cat.No. 15500, Rockford, IL, US). Biotinyl-compounds bound to streptavidin by incubating 1 µg substance per well for 2 h at ambient temperature. Aβ(1–42) was dissolved in PBS to 100 µM and incubated for 24 h at 37°C. Serial dilutions of the incubated peptide were prepared, and supplemented with Tween (0.05% v/v of the final volume) and BSA (1% w/v of the final volume) prior to use. Compounds were incubated with Aβ oligomers for 1 h at ambient temperature. Bound Aβ was detected by monoclonal anti-Aβ AB clone Bam-10 (Sigma-Aldrich) applied in 1∶10000 dilution for 1 h followed by an incubation with anti-mouse IgG-HRP (DakoCytomation, Glostrup Denmark). Finally, 100 µL tetramethylbenzidine (TMB) solution (Cell Signaling Tecnology Inc., Danvers, USA) was introduced into the wells, and the change in the absorbance at 370 nm was monitored constantly, without the addition of stop solution, on a 96-well plate reader (NOVOstar OPTIMA, BMG Labtech, Offenburg, Germany) equipped with a xenon lamp, fiberglass optics and a shaking microplate carrier. Abs370 values were read near complete saturation of the signal intensity, which was observed after 40 min. For the quantitative analysis of the results, nonlinear regressions were carried out and the IC50 values were optimized with fixed number of blocked ligands per Aβ peptide as determined by ITC [80]. […] Concerning the steric shielding exerted by the solid support, the apparent binding parameters estimated from ELISA are in good accordance.

[2] = biological target: T2, fibrillar Aβ (Homo sapiens, UniProt P05067); assay: Capture ELISA, biotinyl ligand on streptavidin plate, fibrillar Aβ; assay type: binding
T2 construct: Aβ(1–42) was dissolved in PBS to 100 µM and incubated for 24 h at 37°C; made in house; host or cells: chemical peptide synthesis (no expression host)
Method: as §1
This phenomenon was tested also in a capture ELISA. Biotin-labeled 4 and 5 were prepared as described and ligation to G0-PAMAM yielded biotin-labeled 9 and 10, respectively. ELISA measurements confirmed the ITC findings (Figure 6B). […]
An indirect ELISA experiment was conducted on 96-well streptavidin-coated clear plates (Pierce, Cat.No. 15500, Rockford, IL, US). […] Bound Aβ was detected by monoclonal anti-Aβ AB clone Bam-10 (Sigma-Aldrich) applied in 1∶10000 dilution for 1 h followed by an incubation with anti-mouse IgG-HRP (DakoCytomation, Glostrup Denmark). Finally, 100 µL tetramethylbenzidine (TMB) solution (Cell Signaling Tecnology Inc., Danvers, USA) was introduced into the wells, and the change in the absorbance at 370 nm was monitored constantly, without the addition of stop solution, on a 96-well plate reader (NOVOstar OPTIMA, BMG Labtech, Offenburg, Germany) equipped with a xenon lamp, fiberglass optics and a shaking microplate carrier. Abs370 values were read near complete saturation of the signal intensity, which was observed after 40 min. […]

[3] = biological target: biotinyl-7; assay: ELISA; capture ELISA as for oligomeric Aβ, but with fibrillar Aβ on plate-bound biotinyl-7
[4] = biological target: biotinyl-10; assay: ELISA; capture ELISA: biotinyl ligands on streptavidin plates, serial dilutions of oligomeric Aβ in PBS with 0.05% Tween and 1% BSA, 1 h at ambient temperature, bound Aβ detected with BAM10; apparent
[5] = biological target: biotinyl-1; assay: as above
[6] = biological target: biotinyl-7; assay: as above
[7] = biological target: biotinyl-8; assay: as above
[8] = biological target: biotinyl-9; assay: as above

N=C(N)NCCC[C@@H](CC(=O)N[C@H]1CCCC[C@@H]1C(=O)N[C@H]1CCCC[C@@H]1C(=O)N[C@@H](CC(=O)O)CC(=O)N[C@H]1CCCC[C@@H]1C(=O)NCC(=O)NCC(=O)N[C@@H](CSC1CC(=O)N(CCC(=O)NCCNC(=O)CCN(CCC(=O)NCCNC(=O)CCN2C(=O)CC(SC[C@H](NC(=O)CNC(=O)CNC(=O)[C@H]3CCCC[C@@H]3NC(=O)C[C@H](CC(=O)O)NC(=O)[C@H]3CCCC[C@@H]3NC(=O)[C@H]3CCCC[C@@H]3NC(=O)C[C@H](CCCNC(=N)N)NC(=O)[C@H]3CCCC[C@@H]3NC(=O)CNC(=O)CNC(=O)CCCCCNC(=O)CCCC[C@@H]3SC[C@@H]4NC(=O)N[C@@H]43)C(N)=O)C2=O)CCN(CCC(=O)NCCNC(=O)CCN2C(=O)CC(SC[C@H](NC(=O)CNC(=O)CNC(=O)[C@H]3CCCC[C@@H]3NC(=O)C[C@H](CC(=O)O)NC(=O)[C@H]3CCCC[C@@H]3NC(=O)[C@H]3CCCC[C@@H]3NC(=O)C[C@H](CCCNC(=N)N)NC(=O)[C@H]3CCCC[C@@H]3NC(=O)CNC(=O)CNC(=O)CCCCCNC(=O)CCCC[C@@H]3SC[C@@H]4NC(=O)N[C@@H]43)C(N)=O)C2=O)CCC(=O)NCCNC(=O)CCN2C(=O)CC(SC[C@H](NC(=O)CNC(=O)CNC(=O)[C@H]3CCCC[C@@H]3NC(=O)C[C@H](CC(=O)O)NC(=O)[C@H]3CCCC[C@@H]3NC(=O)[C@H]3CCCC[C@@H]3NC(=O)C[C@H](CCCNC(=N)N)NC(=O)[C@H]3CCCC[C@@H]3NC(=O)CNC(=O)CNC(=O)CCCCCNC(=O)CCCC[C@@H]3SC[C@@H]4NC(=O)N[C@@H]43)C(N)=O)C2=O)C1=O)C(N)=O)NC(=O)[C@H]1CCCC[C@@H]1NC(=O)CNC(=O)CNC(=O)CCCCCNC(=O)CCCC[C@@H]1SC[C@@H]2NC(=O)N[C@@H]21 (stereo partly shown) [biotinyl-7]
IC50 [1]: 126 nM
IC50 [2]: 886 nM

β-amyloid Aβ(1–42) (from UniProt P05067 672-713) (peptide)
IC50 [3]: 886 nM
IC50 [4]: 18500 nM
IC50 [5]: 12000 nM
IC50 [6]: 126 nM
IC50 [7]: 933 nM
IC50 [8]: 4400 nM

N=C(N)NCCC[C@@H](CC(=O)N[C@H]1CCCC[C@@H]1C(=O)N[C@H]1CCCC[C@@H]1C(=O)N[C@@H](CC(=O)O)CC(=O)N[C@H]1CCCC[C@@H]1C(=O)NCC(=O)NCC(=O)N[C@@H](CSC1CC(=O)N(CCC(=O)NCCNC(=O)CCN(CCC(=O)NCCNC(=O)CCN2C(=O)CC(SC[C@H](NC(=O)CNC(=O)CNC(=O)[C@H]3CCCC[C@@H]3NC(=O)C[C@H](CC(=O)O)NC(=O)[C@H]3CCCC[C@@H]3NC(=O)[C@H]3CCCC[C@@H]3NC(=O)C[C@H](CCCNC(=N)N)NC(=O)[C@H]3CCCC[C@@H]3N)C(N)=O)C2=O)CCN(CCC(=O)NCCNC(=O)CCN2C(=O)CC(SC[C@H](NC(=O)CNC(=O)CNC(=O)[C@H]3CCCC[C@@H]3NC(=O)C[C@H](CC(=O)O)NC(=O)[C@H]3CCCC[C@@H]3NC(=O)[C@H]3CCCC[C@@H]3NC(=O)C[C@H](CCCNC(=N)N)NC(=O)[C@H]3CCCC[C@@H]3N)C(N)=O)C2=O)CCC(=O)NCCNC(=O)CCN2C(=O)CC(SC[C@H](NC(=O)CNC(=O)CNC(=O)[C@H]3CCCC[C@@H]3NC(=O)C[C@H](CC(=O)O)NC(=O)[C@H]3CCCC[C@@H]3NC(=O)[C@H]3CCCC[C@@H]3NC(=O)C[C@H](CCCNC(=N)N)NC(=O)[C@H]3CCCC[C@@H]3N)C(N)=O)C2=O)C1=O)C(N)=O)NC(=O)[C@H]1CCCC[C@@H]1N (stereo partly shown) [Compound 7]
IC50 ([1]; read-out: ELISA IC50, oligomeric Aβ, biotinyl ligand on streptavidin plate, fitted with fixed N from ITC): 126 nM
IC50 [2]: 886 nM
